BigSolDB 2.1

CCCc1nn(C)c2c(=O)[nH]c(-c3cc(S(=O)(=O)N4CCN(C)CC4)ccc3OCC)nc12.O=C(O)CC(O)(CC(=O)O)C(=O)O
solubility (mole fraction)
Conditions | 293.2 K | 298.2 K | 303.2 K | 308.2 K | 313.2 K
in ethanol | 7.93e-05 | 0.000103 | 0.000122 | 0.000164 | 0.000226
in propylene glycol | 0.000297 | 0.000456 | 0.000619 | 0.000748 | 0.000934
